# CycPeptMPDB entries from one study

Data: CycPeptMPDB; original report Townsend et al. 2020, doi:10.26434/chemrxiv.13335941.v1.

PAMPA measures passive passage through an artificial lipid membrane.
Permeability is given as log10 of P in cm/s; higher (less negative) is more permeable.

compound,PAMPA (log10 cm/s)
CC(C)C[C@@H]1NC(=O)[C@@H]2CCCN2C(=O)C[C@H](Cc2ccccc2)NC(=O)[C@@H](CC(C)C)NC(=O)[C@@H](C)NC(=O)[C@H]2CCCN2C(=O)[C@H](Cc2ccccc2)NC1=O,-6.99
CC(C)C[C@@H]1C(=O)N[C@@H](Cc2ccccc2)C(=O)N2CCC[C@@H]2C(=O)N(C)[C@H](C)C(=O)N[C@H](CC(C)C)C(=O)N[C@@H](Cc2ccccc2)CC(=O)N2CCC[C@@H]2C(=O)N1C,-5.97
CCCN1CC(=O)N[C@@H](CC(C)C)C(=O)N[C@@H](CC(C)C)C(=O)N2CCC[C@@H]2C(=O)N(C)[C@H](CC(C)C)C(=O)N[C@@H](Cc2ccccc2)C1=O,-5.15
CC(C)C[C@@H]1NC(=O)[C@@H]2CCCN2C(=O)[C@H](CC(C)C)NC(=O)[C@@H](CC(C)C)N(C)C(=O)[C@H](C)N(C)C(=O)[C@H]2CCCN2C(=O)[C@H](Cc2ccccc2)NC1=O,-5.63
CCCN1CC(=O)N(C)[C@@H](CC(C)C)C(=O)N(Cc2ccccc2)CC(=O)N2CCC[C@@H]2C(=O)N(C)[C@@H](CC(C)C)C(=O)N[C@@H](Cc2ccccc2)C(=O)N2CCC[C@@H]2C1=O,-5.17
CC(C)C[C@@H]1NC(=O)[C@H](C)NC(=O)[C@H](Cc2ccccc2)NC(=O)CN(Cc2ccccc2)C(=O)[C@H]2CCCN2C(=O)[C@H](CC(C)C)NC1=O,-5.88
CCCN1CC(=O)N(C)[C@H](CC(C)C)C(=O)N(Cc2ccccc2)CC(=O)N2CCC[C@H]2C(=O)N(C)[C@@H](CC(C)C)C(=O)N[C@@H](Cc2ccccc2)C1=O,-5.14
CC(C)C[C@H]1C(=O)N(Cc2ccccc2)CC(=O)N2CCC[C@@H]2C(=O)N(C)[C@@H](CC(C)C)C(=O)N[C@@H](Cc2ccccc2)C(=O)N2CCC[C@@H]2C(=O)N[C@@H](Cc2ccccc2)CC(=O)N1C,-5.37
CC(C)C[C@@H]1C(=O)N[C@@H](Cc2ccccc2)C(=O)N2CCC[C@H]2C(=O)N(C)[C@H](C)C(=O)N(C)[C@@H](CC(C)C)C(=O)N[C@@H](Cc2ccccc2)CC(=O)N2CCC[C@H]2C(=O)N1C,-5.71
CC(C)C[C@@H]1NC(=O)[C@H]2CCCN2C(=O)[C@@H](CC(C)C)NC(=O)[C@H](CC(C)C)N(C)C(=O)[C@H](C)N(C)C(=O)[C@H](Cc2ccccc2)NC1=O,-5.88
CC(C)C[C@@H]1C(=O)N2CCC[C@H]2C(=O)N(C)[C@H](CC(C)C)C(=O)N[C@@H](Cc2ccccc2)C(=O)N2CCC[C@@H]2C(=O)N(C)[C@@H](C)C(=O)N[C@H](CC(C)C)C(=O)N1C,-5.06
CC(C)C[C@@H]1NC(=O)[C@@H]2CCCN2C(=O)[C@@H](CC(C)C)N(C)C(=O)[C@H](CC(C)C)N(C)C(=O)[C@H](C)NC(=O)[C@H]2CCCN2C(=O)[C@H](Cc2ccccc2)NC1=O,-6.34
CC(C)C[C@@H]1NC(=O)[C@H](C)NC(=O)[C@@H]2CCCN2C(=O)[C@H](Cc2ccccc2)NC(=O)[C@@H](CC(C)C)NC(=O)[C@@H]2CCCN2C(=O)[C@@H](CC(C)C)NC1=O,-6.15
CCCN1CC(=O)N(C)[C@H](CC(C)C)C(=O)N(C)[C@@H](CC(C)C)C(=O)N2CCC[C@H]2C(=O)N(C)[C@H](CC(C)C)C(=O)N[C@@H](Cc2ccccc2)C1=O,-4.82
CC(C)C[C@H]1NC(=O)C[C@H](Cc2ccccc2)NC(=O)[C@H]2CCCN2C(=O)[C@H](Cc2ccccc2)NC(=O)CN(Cc2ccccc2)C(=O)[C@H]2CCCN2C(=O)[C@@H](CC(C)C)NC1=O,-6.25
CC(C)C[C@@H]1NC(=O)[C@H](C)N(C)C(=O)[C@@H]2CCCN2C(=O)[C@H](Cc2ccccc2)NC(=O)[C@@H](CC(C)C)NC(=O)[C@H]2CCCN2C(=O)[C@@H](CC(C)C)N(C)C1=O,-5.82
CC(C)C[C@@H]1NC(=O)[C@H](C)N(C)C(=O)[C@H]2CCCN2C(=O)[C@H](Cc2ccccc2)NC(=O)[C@H](CC(C)C)N(C)C(=O)[C@H]2CCCN2C(=O)[C@@H](CC(C)C)NC1=O,-5.35
CC(C)C[C@H]1C(=O)N[C@@H](Cc2ccccc2)CC(=O)N2CCC[C@H]2C(=O)N(C)[C@@H](CC(C)C)C(=O)N[C@@H](Cc2ccccc2)C(=O)N2CCC[C@H]2C(=O)N[C@@H](Cc2ccccc2)CC(=O)N1C,-5.58
CC(C)C[C@H]1C(=O)N[C@@H](Cc2ccccc2)C(=O)N2CCC[C@@H]2C(=O)N[C@@H](C)C(=O)N(Cc2ccccc2)CC(=O)N[C@@H](Cc2ccccc2)CC(=O)N2CCC[C@H]2C(=O)N1C,-5.63
CC(C)C[C@@H]1NC(=O)[C@@H](C)N(C)C(=O)[C@H](Cc2ccccc2)NC(=O)[C@@H](CC(C)C)NC(=O)[C@H]2CCCN2C(=O)C[C@H](Cc2ccccc2)NC1=O,-6.33
CC(C)C[C@@H]1NC(=O)C[C@H](Cc2ccccc2)NC(=O)[C@H]2CCCN2C(=O)[C@H](Cc2ccccc2)NC(=O)[C@H](CC(C)C)N(C)C(=O)[C@@H]2CCCN2C(=O)[C@@H](CC(C)C)NC1=O,-5.79

The last 3 entries again:

compound,PAMPA (log10 cm/s)
CC(C)C[C@H]1C(=O)N[C@@H](Cc2ccccc2)C(=O)N2CCC[C@@H]2C(=O)N[C@@H](C)C(=O)N(Cc2ccccc2)CC(=O)N[C@@H](Cc2ccccc2)CC(=O)N2CCC[C@H]2C(=O)N1C,-5.63
CC(C)C[C@@H]1NC(=O)[C@@H](C)N(C)C(=O)[C@H](Cc2ccccc2)NC(=O)[C@@H](CC(C)C)NC(=O)[C@H]2CCCN2C(=O)C[C@H](Cc2ccccc2)NC1=O,-6.33
CC(C)C[C@@H]1NC(=O)C[C@H](Cc2ccccc2)NC(=O)[C@H]2CCCN2C(=O)[C@H](Cc2ccccc2)NC(=O)[C@H](CC(C)C)N(C)C(=O)[C@@H]2CCCN2C(=O)[C@@H](CC(C)C)NC1=O,-5.79

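The data file gives no further conditions (lipid, pH, time, direction or concentration), and values from different papers need not be comparable. Other peptides of the study may be missing here. Entries at the database's floor value (log10 P of -10) are not listed.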